G9a block = G9a (human) methyltransferase inhibition | Q96KQ7 | G9a H3K9 monomethylation, AlphaScreen, 2 h | Potency, µM (titrated, usually from 102 µM), for the others: at the top dose activity, negative = inhibition, usual class: inhibitors | hit rate 8.8% among 350,000; further: potency means the concentration at half of the fitted maximal effect; on the % scale 0 is the no-effect control and ±100 the full control effect; nearly all actives have a fitted effect of over 75% in size
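AlphaScreen read-out: biotin-H3K9 peptide (500 nM) methylation by 20 nM enzyme with 20 uM SAM, 2 h at room temperature after 15 min compound preincubation; anti-monomethyl H3K9 antibody plus donor/acceptor beads, 10 min dark.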
Sfp PPTase inh = qHTS Assay for Inhibitors of Bacillus subtilis Sfp phosphopantetheinyl transferase (PPTase) | 4'-phosphopantetheinyl transferase ffp (Bacillus subtilis), Q9F4F7 | Biochemical Sfp PPTase activity, qHTS | Potency, µM, for inactives: max response, negative = inhibition, hits mostly inhibitors | 3.5% of 310,000 active | AID 1490, 2009; active = well fitted inhibition curve with a large enough effect; inconclusive = small, poorly fitted or top-dose-only effect, or another doubt; inactive = no such curve, though single readings can be large or run the other way;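 also: the enzyme is Sfp with the accession as filed and its product quenches rhodamine fluorescence; potency is read from the fitted curve at half-maximal effect; 0% = enzyme reaction without inhibitor and -100% = no enzyme wells; top concentration of the series not given in the record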
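Compounds were incubated with enzyme (final 15 nM) for 15 min at room temperature before substrate addition started the reaction. Fluorescence at 525 nm excitation, 598 nm emission was recorded immediately and after 30 minutes.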
KDM4E inh = inhibitors of human JMJD2E histone demethylase. B2RXH2. JMJD2E catalytic domain, FDH-coupled NADH fluorescence (FDH is formaldehyde dehydrogenase). Potency, µM (titrated, usually from 57.1 µM), for the others: at the highest dose activity change, negative = inhibition, most hits filed as inhibitors. hit rate 1.6% among 230,000. AID 2147; active means well fitted inhibition curve with a large enough effect, not every such curve was filed as active; inconclusive means small, poorly fitted or top-dose-only effect, or another doubt; inactive means no such curve, though single readings can be large or run the other way;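 further: potency means the concentration at half of the fitted maximal effect; 0% = wells with enzyme and -100% = buffer wells without enzyme; nearly all actives have a fitted effect of over 50% in size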
miR-21 reporter = raises the signal of a miR-21 reporter | HeLa miR-21 FLuc reporter, luciferase, 48 h | Potency, µM (highest dose often 38.3 µM), for inactives: at the highest dose reporter change, positive = more light | 340,000 tested, under 10 active | AID 2288; active = well fitted rising curve with a large enough effect; inconclusive = small, poorly fitted or top-dose-only effect; inactive = no such curve, though single readings can be large or run the other way;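 also: % of control where 0% means no effect; miR-21 action dims this reporter so a rising signal means less miR-21 action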
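HeLa miR-21-FLuc reporter line, endogenous miR-21; 2000 cells/well in DMEM/10% FBS; compound titration up to ~40uM final, 48 h, 37 degree Celsius; luciferase detection reagent, 15 min lysis, CCD luminescence.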
ALDH1A1 inh = blocks purified human ALDH1A1 activity; P00352; Purified ALDH1A1, NADH fluorescence, propionaldehyde substrate; Potency, µM (titrated, usually from 75.3 µM), for the others: at the highest dose activity, negative = inhibition, actives largely listed as inhibitors; hit rate 7.3% among 220,000; active means well fitted inhibition curve with a large enough effect, not every such curve was filed as active; inconclusive means small, poorly fitted or top-dose-only effect, or another doubt; inactive means no such curve, though single readings can be large or run the other way;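 further: potency means the concentration at half of the fitted maximal effect; plate controls were no enzyme wells and a reference inhibitor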
LMNA splice mod = changes lamin A minigene splicing in HeLa cells. AID 1487. HeLa LMNA splicing GFP/RFP minigene ratio, 48 h. hit rate 0.01% among 200,000. Potency, µM (doses to about 46.1 µM), inactives show at the top dose ratio change, negative = inhibition, hits mostly inhibitors; active means well fitted inhibition curve with a large enough effect in the signal ratio, with a control signal flat, not every such curve was filed as active; inconclusive means small, poorly fitted or top-dose-only effect, or effect the other way, or a change in a side signal; the % refers to the signal ratio; further: potency means the concentration at half of the fitted maximal effect; on the % scale 0 is the no-effect control and ±100 the full control effect
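S3 HeLa cells stably expressing lamin A-EGFP splicing minigene plus DsRed2, 600 cells/well, 48 h compound exposure at 37C. Laser-scanning cytometry; analysed as GFP (500-530 nm)/RFP (575-640 nm) total intensity ratio; 0.5% DMSO vehicle.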
Starred values were filed as active, the others as inactive; u = inconclusive; x = no result given; [ ] = remark or other dose. Rows were chosen to be rich in hits. Some 13% of all compounds tested hit in one or more screens of this group. Unless noted, the call rests on the fitted dose curve; in most records, active means well fitted curve in the direction sought with a large enough effect; inconclusive means small, poorly fitted or top-dose-only effect, or another doubt; inactive means no such curve, though single readings can be large; an effect the other way counts as inactive or inconclusive.

SMILES	G9a block	Sfp PPTase inh	KDM4E inh	miR-21 reporter	ALDH1A1 inh	LMNA splice mod
Cc1ncc(CO)c2cc(C(=O)Nc3ccccc3Cl)c(=Nc3cccc(C(N)=O)c3)oc12	-7%	19%	x	0%	x	x
CC1CC2(CCCC2)Nc2ccc(F)cc21 (stereo not given)	11%[2.33 µM]	7%	x	-1%	x	x
Cc1cccc2c1NC1(CCCC1)CC2C (stereo not given)	50µM*	-6%	4%	5%	x	x
CCOc1cccc(N)c1	2%[0.501 µM]	x	x	x	10%	x
CCOc1ccc(N)c(SSc2cc(OCC)ccc2N)c1	0.56µM*	2.8µM*	x	-8%	x	x
Fc1ccc(NC(=S)NN=C2CCCCCC2)cc1	35µM*	-29%	-4%	-26%	u	-2%
S=C(NN=C1CCCCCC1)Nc1ccc(Cl)cc1	28µM*	-5%	-5%	-1%	u	-3%
C=C(C(C)=O)C(O)c1ccccc1 (stereo not given)	x	-19%	2%	x	4%	x
CCSC1=C(C#N)C(c2cccc(OC)c2)CC(=O)N1 (stereo not given)	u	9%	-13%	-5%	-13%	4%
C=CCSC1=C(C#N)C(c2ccc(OCC)cc2)CC(=O)N1 (stereo not given)	u	79µM*	-8%	-2%	u	0%
CCOc1ccc(C2CC(=O)NC(SC)=C2C#N)cc1 (stereo not given)	-16%	4%	-4%	-14%	u	-3%
CCOc1cc(C2CC(=O)NC(SCC)=C2C#N)ccc1O (stereo not given)	50µM*	4%	9%	0%	-7%	-3%
Cc1cccc(-c2n[nH]c(=S)n2/N=C/C=C/c2ccco2)c1	1.6µM*	u	-22%	-9%	x	x
S=c1[nH]nc(-c2ccccc2Cl)n1/N=C/C=C/c1ccco1	1.1µM*	56µM*	-19%	-3%	x	x
C(=C\c1ccco1)/C=N/n1cnnc1	40µM*	u	14µM*	-5%	3.2µM*	7%
S=c1[nH]nc(-c2ccccc2)n1/N=C/c1ccc(-c2ccccc2Cl)o1	u	u	-11%	u	7%	u
S=c1[nH]nc(-c2ccncc2)n1/N=C/C=C/c1ccco1	-138%	45µM*	-11%	-1%	u	u
CN(C)CCNC(=O)C1(O)c2cc(Br)ccc2NC(=O)N1c1ccc(Cl)cc1 (stereo not given)	2%	19%	x	-3%	x	x
CN(CC(=O)NCc1ccco1)CC(=O)Nc1cc(S(C)(=O)=O)ccc1Cl	-5%[0.501 µM]	x	x	x	x	x
CC(=O)NS(=O)(=O)c1ccc(NC(=O)COc2ccc(C(=O)c3ccccc3)cc2)cc1	-40%[59 µM]	-23%	2%	-2%	10µM*	1%
CN(C)S(=O)(=O)c1cccc(NC(=O)COc2ccc(C(=O)c3ccccc3)cc2)c1	0%	1%	x	17%	x	x
CCC1(CC)NC(=O)N(CC(=O)Nc2sc3c(c2C(N)=O)CCC3)C1=O	-2%[12.7 µM]	-15%	u	1%	22µM*	3%
COC(=O)c1c(NC(=O)CN2C(=O)C(=O)N(CC(C)C)C2=O)sc2c1CCCCC2	5%[59 µM]	-29%	-11%	0%	u	-12%
CC(=O)Nc1sc2c(c1C(N)=O)CCC2	1%[59 µM]	9%	u	0%	5%	-9%
CCC1(C)NC(=O)N(CC(=O)Nc2sc3c(c2C(=O)OC)CCCCC3)C1=O (stereo not given)	50µM*	6%	-2%	-10%	u	-1%
COCCCn1c(O)c(/C=C2\N=C(C#N)C(=Nc3ccc(C)cc3)O2)sc1=S	u	13µM*	u	-2%	x	x
O=C(CN1C(=O)NC2(CCCC2)C1=O)OCC(=O)c1cccc(Cl)c1	50µM*	x	x	x	x	x
CN1C(=O)C(c2nnc(Nc3cccc4ccccc34)s2)C2CC1(C)Oc1ccccc12 (stereo not given)	45µM*	-9%	-1%	12%	u	u
Cc1ccc(S(=O)(=O)C2C(=O)N(C)C3(C)CC2c2ccccc2O3)cc1C (stereo not given)	12%	16%	20%	-7%	0%	-12%

Entries above marked active in Sfp PPTase inh.
SMILES	G9a block	Sfp PPTase inh	KDM4E inh	miR-21 reporter	ALDH1A1 inh	LMNA splice mod
CCOc1ccc(N)c(SSc2cc(OCC)ccc2N)c1	0.56µM*	2.8µM*	x	-8%	x	x
C=CCSC1=C(C#N)C(c2ccc(OCC)cc2)CC(=O)N1 (stereo not given)	u	79µM*	-8%	-2%	u	0%
S=c1[nH]nc(-c2ccccc2Cl)n1/N=C/C=C/c1ccco1	1.1µM*	56µM*	-19%	-3%	x	x
S=c1[nH]nc(-c2ccncc2)n1/N=C/C=C/c1ccco1	-138%	45µM*	-11%	-1%	u	u
COCCCn1c(O)c(/C=C2\N=C(C#N)C(=Nc3ccc(C)cc3)O2)sc1=S	u	13µM*	u	-2%	x	x
